Biological target: JAK-1 (Homo sapiens, UniProt P23458)
Experiment: JAK enzymatic assay (Eurofins KinaseProfiler/IC50Profiler, radiometric), JAK-1
Details: for JAK1/JAK2 selectivity: selectivity IC50 ratio for JAK1 versus JAK2, human enzymes

Chains of the proteins cited; added tags and fusions are not shown. Lines headed by an entry give the natural chain unless they say otherwise; changes in a name come on top.
UniProt P23458: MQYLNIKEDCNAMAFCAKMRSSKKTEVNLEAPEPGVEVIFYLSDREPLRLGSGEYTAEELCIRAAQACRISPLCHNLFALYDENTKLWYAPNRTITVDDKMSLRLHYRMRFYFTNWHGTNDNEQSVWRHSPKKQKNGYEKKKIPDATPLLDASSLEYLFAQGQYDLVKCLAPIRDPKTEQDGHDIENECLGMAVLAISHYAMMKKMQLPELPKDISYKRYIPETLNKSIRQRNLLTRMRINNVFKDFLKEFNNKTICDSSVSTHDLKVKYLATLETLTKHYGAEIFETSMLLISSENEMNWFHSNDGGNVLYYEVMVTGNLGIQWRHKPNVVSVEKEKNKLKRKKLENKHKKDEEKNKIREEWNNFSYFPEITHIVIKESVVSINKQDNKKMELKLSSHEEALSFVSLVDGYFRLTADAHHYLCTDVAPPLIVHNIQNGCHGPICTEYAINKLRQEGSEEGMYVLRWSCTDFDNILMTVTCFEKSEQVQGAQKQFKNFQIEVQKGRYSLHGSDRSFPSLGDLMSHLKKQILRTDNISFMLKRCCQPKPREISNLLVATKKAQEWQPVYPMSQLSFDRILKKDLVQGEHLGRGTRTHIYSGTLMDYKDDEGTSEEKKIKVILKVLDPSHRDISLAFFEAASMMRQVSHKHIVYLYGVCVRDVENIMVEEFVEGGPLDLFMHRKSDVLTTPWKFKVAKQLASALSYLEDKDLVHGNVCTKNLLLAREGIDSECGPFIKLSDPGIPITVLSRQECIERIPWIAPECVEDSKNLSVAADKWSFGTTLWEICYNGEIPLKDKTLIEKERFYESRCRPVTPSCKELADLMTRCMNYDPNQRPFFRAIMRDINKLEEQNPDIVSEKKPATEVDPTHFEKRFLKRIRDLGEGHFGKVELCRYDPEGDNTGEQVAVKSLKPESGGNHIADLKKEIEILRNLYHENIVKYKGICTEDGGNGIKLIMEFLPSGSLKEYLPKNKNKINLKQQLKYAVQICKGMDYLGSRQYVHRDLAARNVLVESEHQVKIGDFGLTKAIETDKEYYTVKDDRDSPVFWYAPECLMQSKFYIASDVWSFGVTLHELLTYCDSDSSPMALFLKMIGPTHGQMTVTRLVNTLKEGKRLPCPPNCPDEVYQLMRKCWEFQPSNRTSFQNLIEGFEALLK

Row | Structure (SMILES) | JAK1/JAK2 selectivity | IC50 [nM]
1 | COc1cc(NC(=O)CN2CCN(c3ncnc4[nH]ccc34)CC2)ccc1S(=O)(=O)N(C)C [Compound 1, 2-(4-(7H-pyrrolo[2,3-d]pyrimidin-4-yl)piperazin-1-yl)-N-(4-(N, N-dimethylsulfamoyl)-3-methoxyphenyl) acetamide] | >20 | 
2 | CN(C)S(=O)(=O)c1ccc(NC(=O)CN2CCN(c3ncnc4[nH]ccc34)CC2)cc1Cl [Compound 6, 2-(4-(7H-pyrrolo[2,3-d]pyrimidin-4-yl)piperazin-1-yl)-N-(3-chloro-4-(N,N-dimethylsulfamoyl)phenyl)acetamide] | 62 | < 250
3 | CN(C)S(=O)(=O)c1ccc(NC(=O)CN2CCN(c3ncnc4[nH]ccc34)CC2)cc1F [Compound 5, 2-(4-(7H-pyrrolo[2,3-d]pyrimidin-4-yl)piperazin-1-yl)-N-(4-(N,N-dimethylsulfamoyl)-3-fluorophenyl)acetamide] | >38 | 
